From paper PMC12374581 (European journal of medicinal chemistry, 2025)

Assay: Solubility observed for in vivo dosing

## Buprenorphine [reference compound]
  solubility (in words): poorly soluble
